# Laboratory results: paper PMC9562916, “Investigation of the Phenolic Component Bioavailability Using the In Vitro Digestion/Caco-2 Cell Model, as well as the Antioxidant Activity in Chinese Red Wine” (Foods, 2022)
# Tested on: Caco-2 cell monolayer
# Assay: Caco-2 transepithelial transport assay of digested red wine
# Assay type: in vitro ADME, human
# Protocol: Caco-2 cells were inoculated following the method of Hubatsch et al. […] Briefly, a 5% v/v of CO2 incubator at 37 °C was used to house the cells. […] Caco-2 cells were sub-cultured when they reached 80-90% of the adherent growth by treating them with a 0.05% v/v of trypsin-EDTA solution. The culture between passages 35 and 40 was used for the following experiment. Transport experiments were performed according to the method of Wu et al. with slight modifications. First, 1.0 × 10^5 Caco-2 cells were inoculated onto 12 mm transparent cell culture plates (Transwell). Media were carefully injected into the apical (0.5 mL) and basolateral (1.5 mL) sides of the Transwell plates. The cell culture medium had to be replaced every other day until the cells formed a monolayer. The integrity and transport ability of the Caco-2 cell monolayer were evaluated by measuring the trans-epithelial electrical resistance (TEER) with a MilliCell voltammeter (Millicell ERS-2, Merck Millipore, Billerica, MA, USA). […] When the cell activity exceeded 0.9, a transport experiment was conducted. The apical side was injected with a digested red wine sample (0.5 mL) and was thoroughly mixed with […] Balanced Salt Solution (HBSS) buffer solution. […] The cells were then cultured in a 37 °C, 5% CO2 incubator. Then, 0.25 mL samples were separately taken from the basolateral side of the monolayer. An equal volume of HBSS buffer was then added every half hour from the beginning of the culture until the end of the culture at 6 h. The collected samples were subsequently filtered and placed in the sample bottle for further HPLC analysis. This experiment was repeated several times to collect enough samples for the next antioxidant test. […] PCs were determined according to their retention times, UV/VIS spectra, and high-resolution MS spectra, in addition to a comparison with the standards. […] PCs All of the samples were determined in triplicate.
smiles,measurement,value
O.Oc1cc(O)c2c(c1)O[C@H](c1ccc(O)c(O)c1)[C@@H](O)C2 [Catechin],"PC Contents, Cabernet, Transmembrane",3.16 ± 0.15 ^a mg/L
same,"PC Contents, Helanshan, Transmembrane",1.90 ± 0.07 ^a mg/L
same,"PC Contents, Tianzhu, Transmembrane",3.33 ± 0.15 ^a mg/L

# Marks after values point to notes of the source that are not given here.
